From ChEMBL document CHEMBL1144796, “Carbonic anhydrase inhibitors. Interaction of indapamide and related diuretics with 12 mammalian isozymes and X-ray crystallographic studies for the indapamide-isozyme II adduct” (Bioorg Med Chem Lett, 2008)

Amino acid sequences for entries named in this document (tags omitted). A change or cut given only in a name is not applied to a line headed by its entry.
UniProt P35218: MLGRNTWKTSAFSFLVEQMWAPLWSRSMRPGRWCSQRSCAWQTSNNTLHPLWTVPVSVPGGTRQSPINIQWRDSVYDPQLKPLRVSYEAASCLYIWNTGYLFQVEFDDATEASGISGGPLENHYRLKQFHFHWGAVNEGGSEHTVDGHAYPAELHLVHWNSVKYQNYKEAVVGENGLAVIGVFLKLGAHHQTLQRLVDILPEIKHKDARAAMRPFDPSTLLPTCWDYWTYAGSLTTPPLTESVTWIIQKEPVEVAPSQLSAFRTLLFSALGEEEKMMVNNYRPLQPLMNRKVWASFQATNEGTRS

Biological target: Carbonic anhydrase 5A, mitochondrial (Homo sapiens) (UniProt P35218)

Ki: 499 nM
Compound: NS(=O)(=O)c1cc(C(=O)O)c(NCc2ccco2)cc1Cl
